Tested on: Utrophin A promoter linked to a luciferase reporter gene
Experiment: Luciferase reporter assay (murine H2K cells)
Type: cell-based
Details: Mus musculus, H2K mdx

In the case of CCP(=O)(OC)c1ccc2oc(-c3ccc(Cl)cc3)nc2c1 (stereo not shown) [Example 455, Methyl 2-(4-chlorophenyl)benzo[d]oxazol-5-yl(ethyl)phosphinate], the activity at 10 µM is reported as over 401%.

Reference: patent US8501713B2, “Drug combinations for the treatment of duchenne muscular dystrophy” (Summit Corporation PLC, priority 2007, dated 2013)
